Screens deposited in PubChem BioAssay by National Center for Advancing Translational Sciences (NCATS).
An excerpt weighted towards active compounds, which were near 13% of everything screened.
miR-21 reporter: miR-21 reporter, rising signal; HeLa miR-21 FLuc reporter, luciferase, 48 h; Potency, µM (doses to about 38.3 µM), for inactives: at the highest dose reporter change, positive = more light; 340,000 tested, under 10 active; AID 2288; active = well fitted rising curve with a large enough effect; inconclusive = small, poorly fitted or top-dose-only effect; inactive = no such curve, though single readings can be large or run the other way;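 further: % of control where 0% means no effect; miR-21 action dims this reporter so a rising signal means less miR-21 action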
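Using DMEM plus 10% FBS, HeLa miR-21-FLuc cells are incubated with test compounds (final up to about 40uM) for 48 hours; firefly luciferase signal is then imaged following reagent-mediated lysis.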
Sfp PPTase inh: inhibitors of Bacillus subtilis Sfp phosphopantetheinyl transferase. Q9F4F7. Biochemical Sfp PPTase activity, qHTS. Potency, µM, inactives show max response, negative = inhibition, most hits filed as inhibitors. 3.5% of 310,000 active. AID 1490; active = well fitted inhibition curve with a large enough effect; inconclusive = small, poorly fitted or top-dose-only effect, or another doubt; inactive = no such curve, though single readings can be large or run the other way;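 also: the enzyme is Sfp with the accession as filed and its product quenches rhodamine fluorescence; potency is read from the fitted curve at half-maximal effect; 0% = enzyme reaction without inhibitor and -100% = no enzyme wells; top concentration of the series not given in the record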
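Reaction rates are the 30-min fluorescence difference (ex 525, em 598 nm) in wells containing 15 nM Sfp, 5 uM rhodamine-CoA and 12.5 uM BHQ-2-YbbR at pH 7.6 with 10 mM MgCl2.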
ALDH1A1 block: inhibitors of human aldehyde dehydrogenase 1A1. P00352. Potency, µM (doses to about 75.3 µM), inactives show at the top dose activity, negative = inhibition, usual class: inhibitors. Purified ALDH1A1, NADH fluorescence, propionaldehyde substrate. AID 1030. 7.3% of 220,000 active; active = well fitted inhibition curve with a large enough effect, not every such curve was filed as active; inconclusive = small, poorly fitted or top-dose-only effect, or another doubt; inactive = no such curve, though single readings can be large or run the other way;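 also: potency is read from the fitted curve at half-maximal effect; plate controls were no enzyme wells and a reference inhibitor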
LMNA splice mod: modulators of lamin A splicing; AID 1487; Potency, µM (titrated, usually from 46.1 µM), inactives show at the highest dose ratio change, negative = inhibition, hits mostly inhibitors; 0.01% of 200,000 active; HeLa LMNA splicing GFP/RFP minigene ratio, 48 h; active = well fitted inhibition curve with a large enough effect in the signal ratio, with a control signal flat, not every such curve was filed as active; inconclusive = small, poorly fitted or top-dose-only effect, or effect the other way, or a change in a side signal; the % refers to the signal ratio; also: potency is read from the fitted curve at half-maximal effect; % is scaled to controls: 0 for no effect and ±100 for the full control effect
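Read-out is the ratio of GFP to DsRed2 object intensity, acquired by 488 nm laser-scanning cytometry on HeLa lamin A-EGFP minigene reporter cells. Compound incubation 48 hrs at 37 °C in Opti-MEM with 2% FBS; DMSO 0.5% final.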
JMJD2E inh: inhibitors of human JMJD2E histone demethylase | 1.6% of 230,000 active | B2RXH2 | Potency, µM (highest dose often 57.1 µM), without a hit: at the top dose activity change, negative = inhibition, most hits filed as inhibitors | JMJD2E catalytic domain, FDH-coupled NADH fluorescence (FDH is formaldehyde dehydrogenase);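 also: potency is read from the fitted curve at half-maximal effect; 0% = wells with enzyme and -100% = buffer wells without enzyme; nearly all actives have a fitted effect of over 50% in size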
G9a inh: blocks human histone lysine methyltransferase G9a; G9a H3K9 monomethylation, AlphaScreen, 2 h; Potency, µM (highest dose often 102 µM), for inactives: top-dose activity, negative = inhibition, actives largely listed as inhibitors; 8.8% of 350,000 active; also: potency is read from the fitted curve at half-maximal effect; % is scaled to controls: 0 for no effect and ±100 for the full control effect; nearly all actives have a fitted effect of over 75% in size
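Methyltransferase reactions run at room temperature for 2 h (20 nM enzyme, 500 nM biotin-H3K9 peptide, 20 uM SAM) after a 15 min compound preincubation; product detected by AlphaScreen beads and anti-H3K9me1 antibody.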
The depositor's hits bear a star; u = inconclusive; x = no result given; [ ] = dose if it differs, or a comment. Unless noted, calls follow the shape of the dose curve; as a rule, active = well fitted curve in the direction sought with a large enough effect; inconclusive = small, poorly fitted or top-dose-only effect, or another doubt; inactive = no such curve, though single readings can be large; an effect the other way counts as inactive or inconclusive.

1. CSCC[C@H](N)C(=O)N[C@@H](CO)C(=O)N[C@@H](CCCN=C(N)N)C(=O)N1CCC[C@H]1C(=O)N[C@@H](C)C(=O)N[C@@H](CS)C(=O)N1CCC[C@H]1C(=O)N[C@@H](CC(N)=O)C(=O)N[C@@H](CC(=O)O)C(=O)N[C@@H](CCCCN)C(=O)N[C@@H](Cc1ccc(O)cc1)C(=O)N[C@@H](CCC(=O)O)C(=O)O
2. COc1ccccc1/C=C/CN1CCSCC1
3. COc1ccccc1/C=C/CN1CCOCC1
4. COc1ccccc1-c1nc(CNC(=O)NC2CCCCC2)c(C)o1
5. C=CCn1c(NC(=O)CC)c(C(=O)OCC)sc1=S
6. COc1cc([N+](=O)[O-])ccc1NC(=S)Nn1cnnc1
7. COc1cc([N+](=O)[O-])ccc1NC(=S)Nc1cccc(C(=O)O)c1
8. COC(=O)Nc1ccc([N+](=O)[O-])cc1OC
9. CCOC(=O)c1cccc(NC(=O)CCc2c(C)nn(-c3ccc(N4CCCC4)nn3)c2C)c1
10. COc1ccc(NC(=O)c2cnc(N3CCCCC3)c3ccccc23)cc1Cl

entry no.	1	2	3	4	5	6	7	8	9	10
miR-21 reporter	x	-9%	-6%	-4%	-1%	-1%	-10%	0%	-3%	12%
Sfp PPTase inh	2%	-9%	7%	x	-15%	20µM*	u	15%	x	x
ALDH1A1 block	x	x	u	x	u	x	u	-3%	x	x
LMNA splice mod	x	x	-8%	u	9%	x	18%	-7%	10%[46 µM]	9%[46 µM]
JMJD2E inh	x	x	u	x	6%	x	u	-15%	x	x
G9a inh	x	32µM*	u	7%[12.7 µM]	45µM*	10µM*	10µM*	14%	13%[59 µM]	-1%[59 µM]

Record cards, as listed above. Values in the order: miR-21 reporter | Sfp PPTase inh | ALDH1A1 block | LMNA splice mod | JMJD2E inh | G9a inh
Listed for COc1ccccc1/C=C/CN1CCSCC1 → -9% | -9% | x | x | x | 32µM*
Listed for C=CCn1c(NC(=O)CC)c(C(=O)OCC)sc1=S → -1% | -15% | u | 9% | 6% | 45µM*
Listed for CCOC(=O)c1cccc(NC(=O)CCc2c(C)nn(-c3ccc(N4CCCC4)nn3)c2C)c1 → -3% | x | x | 10%[46 µM] | x | 13%[59 µM]

Remaining list, next part.
11. CCOc1ccc2c(c1)[C@@H]1C=CC[C@@H]1[C@H](c1ccccc1Cl)N2
12. O=C(O)c1ccc2c(c1)C1C=CCC1C(c1cc3c(cc1Br)OCO3)N2 (stereo not drawn)
13. C=C(C)C(=O)/C=C/c1ccc(Br)cc1
14. COC(=O)C1(CO)NC(c2cccs2)C2C(=O)N(c3ccccc3)C(=O)C21 (stereo not drawn)
15. O=C1NC(=O)C2C1C(c1cccs1)NN2Cc1ccccc1 (stereo not drawn)
16. Cc1cc(Nc2ccccc2)nc(-c2ccccc2O)n1
17. CCCOc1cc(C)nc(-c2ccccc2O)n1
18. Cc1cc(NC2CCCCC2)nc(-c2ccccc2O)n1
19. CC(=O)c1ccc(NC(=O)NC2CCCCCCC2)cc1
20. CC1(C)c2ccccc2-n2c1cc1oc(=O)cc(O)c1c2=O

entry no.	11	12	13	14	15	16	17	18	19	20
miR-21 reporter	0%	-12%	x	-2%	-1%	-34%	-8%	-30%	-54%	0%
Sfp PPTase inh	x	-5%	-12%	10%	-14%	-6%	-4%	-24%	2%	89µM*
ALDH1A1 block	x	6%	-8%	20%	-8%	-13%	10µM*	2%	x	x
LMNA splice mod	x	x	x	-2%	3%[46 µM]	-14%	u	u	x	x
JMJD2E inh	x	-11%	4%	-2%	u	u	-4%	-2%	x	u
G9a inh	11µM*	-45%	x	-8%	50µM*	65%[59 µM]	278%	18µM*	x	x

21. Cc1c(O)cc2n(c1=O)-c1ccccc1C2(C)C
22. CCN1CCN(c2ccc(S(=O)(=O)N3CCOCC3)cc2NC(=O)c2ccc(Cl)s2)CC1
23. CCN1CCN(c2ccc(S(=O)(=O)N3CCOCC3)cc2NC(=O)C(C)Oc2ccc(Cl)cc2)CC1 (stereo not drawn)
24. CCN1CCN(c2ccc(S(=O)(=O)N3CCOCC3)cc2NC(=O)c2ccccc2SC)CC1
25. CCN1CCN(c2ccc(S(=O)(=O)N3CCOCC3)cc2NC(=O)c2sccc2C)CC1
26. CCN1CCN(c2ccc(S(=O)(=O)N3CCOCC3)cc2NC(=O)CC(C)C)CC1
27. CC(Oc1ccc(Cl)cc1)C(=O)Nc1cccc(S(=O)(=O)N2CCOCC2)c1 (stereo not drawn)
28. CCN1CCN(c2ccc(S(=O)(=O)N3CCOCC3)cc2NC(=O)c2cc(Cl)nc3ccccc23)CC1
29. O=C(O)c1ccc(Cl)c(S(=O)(=O)Nc2ccccc2C(=O)Nc2ccc(Cl)cc2)c1

entry no.	21	22	23	24	25	26	27	28	29
miR-21 reporter	-11%	x	x	x	x	x	x	x	-28%
Sfp PPTase inh	15%	x	x	x	x	x	x	x	6%
ALDH1A1 block	4%	x	x	x	x	x	x	x	x
LMNA splice mod	-7%	x	x	x	x	x	x	x	x
JMJD2E inh	2%	x	x	x	x	x	x	x	x
G9a inh	-3%[59 µM]	-30%	11µM*	32µM*	13µM*	0%[12.7 µM]	10%[59 µM]	45µM*	u
